# Data taken from PubChem BioAssay AID425 (Sanford-Burnham Center for Chemical Genomics, 2006).
# By UniProt entry, the sequences of proteins in these tests, tags left out.
# UniProt Q64346, whole entry: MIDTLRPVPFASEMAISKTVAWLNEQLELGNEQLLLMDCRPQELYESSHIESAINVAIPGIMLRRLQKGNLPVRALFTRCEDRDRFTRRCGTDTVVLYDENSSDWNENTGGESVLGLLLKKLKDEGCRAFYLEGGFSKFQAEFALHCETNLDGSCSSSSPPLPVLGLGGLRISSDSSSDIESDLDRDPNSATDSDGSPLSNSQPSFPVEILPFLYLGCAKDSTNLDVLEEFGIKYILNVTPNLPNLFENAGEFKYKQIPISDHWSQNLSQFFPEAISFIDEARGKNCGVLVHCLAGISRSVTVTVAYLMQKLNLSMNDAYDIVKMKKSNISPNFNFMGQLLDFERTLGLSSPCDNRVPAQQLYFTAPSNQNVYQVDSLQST
# Only a part is listed here, and it is no random draw. Entries with a potency or affinity are not part of this list. The source made the active and inactive calls. No stated cut-off is given here; in the data, active means inhibition above about 50%; inactive means the rest.
# Target: Dual specificity protein phosphatase 6 (Rattus norvegicus) (UniProt Q64346)
# Assay: MKP-3 phosphatase inhibitors, primary screen, biochemical, rat enzyme, in vitro (AID 425);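 further: plate controls were vehicle for no effect and reference inhibitor for full effect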
# Conditions: recombinant MKP-3 phosphatase activity, fluorescence; at 20 µM; active compounds read high
row,Structure (SMILES),inhibition
1,N#CC1(Nc2ccccc2)CCN(CCc2ccccc2)CC1,inactive: -1.9%
2,COc1ccc(NC2CCN(CCc3ccccc3)CC2)c(OC)c1,inactive: -6.9%
3,O=C(OC1CN2CCC1CC2)C1c2ccccc2Oc2ccccc21 (configuration not stated),inactive: -12.6%
4,CCOc1ncccc1C(=O)NCC1(N2CCOCC2)CCCCC1,inactive: -4.6%
5,CCC(CO)(C(=O)OC1CN2CCC1CC2)c1ccccc1 (configuration not stated),inactive: -8.2%
6,Fc1ccccc1NC1CCN(Cc2ccccc2)CC1,inactive: -7.1%
7,N/C(=N\O)c1c(N)no[n+]1[O-],inactive: -7%
